Activity calls are given as the source filed them. The rule behind the calls is not given here.
Legend:
[1] = target: T1, Toll-like receptor 7 (Homo sapiens) (UniProt Q9NYK1); experiment: Agonist activity at human TLR7 in human whole blood assessed as induction of IFNalpha production
T1 sequence (whole entry): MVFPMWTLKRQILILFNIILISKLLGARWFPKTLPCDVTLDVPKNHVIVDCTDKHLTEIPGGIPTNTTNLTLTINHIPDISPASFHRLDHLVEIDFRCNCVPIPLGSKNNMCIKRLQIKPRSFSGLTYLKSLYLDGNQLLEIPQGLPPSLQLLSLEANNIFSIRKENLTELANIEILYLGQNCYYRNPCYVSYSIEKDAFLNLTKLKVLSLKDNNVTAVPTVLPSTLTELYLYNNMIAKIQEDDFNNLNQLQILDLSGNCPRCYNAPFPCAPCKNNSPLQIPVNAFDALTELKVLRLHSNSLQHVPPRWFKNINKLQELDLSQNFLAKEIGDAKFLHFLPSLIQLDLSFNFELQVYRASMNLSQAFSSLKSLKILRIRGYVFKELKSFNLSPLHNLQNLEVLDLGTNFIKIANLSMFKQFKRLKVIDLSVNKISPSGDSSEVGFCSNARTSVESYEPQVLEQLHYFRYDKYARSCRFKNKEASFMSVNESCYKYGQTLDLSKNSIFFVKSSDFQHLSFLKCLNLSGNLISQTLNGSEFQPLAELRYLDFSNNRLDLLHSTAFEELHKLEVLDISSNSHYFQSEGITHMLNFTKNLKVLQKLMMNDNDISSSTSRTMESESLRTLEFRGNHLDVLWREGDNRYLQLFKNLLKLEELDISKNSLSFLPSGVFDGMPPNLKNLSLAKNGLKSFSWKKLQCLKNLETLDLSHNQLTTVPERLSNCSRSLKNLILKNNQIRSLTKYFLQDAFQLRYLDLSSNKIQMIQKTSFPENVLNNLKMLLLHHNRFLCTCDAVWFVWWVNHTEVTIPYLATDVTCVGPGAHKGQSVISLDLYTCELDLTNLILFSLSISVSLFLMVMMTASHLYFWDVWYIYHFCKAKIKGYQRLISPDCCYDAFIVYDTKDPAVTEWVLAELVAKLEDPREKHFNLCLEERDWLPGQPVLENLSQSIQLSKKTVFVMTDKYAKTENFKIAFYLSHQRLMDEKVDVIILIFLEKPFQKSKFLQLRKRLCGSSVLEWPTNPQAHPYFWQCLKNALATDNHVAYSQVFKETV

[2] = target: T1, Toll-like receptor 7 (Homo sapiens); experiment: Agonist activity at human TLR7 expressed in HEK293 cells co-transfected with MD2 and sAP assessed as induction of NF-kappaB activity by reporter gene assay; assay type: cell-based

Structure (SMILES): CCCCc1cc2c(o1)c(N)nc1ccccc12
- Activity [1]: inactive
- Activity [2]: inactive
